# High-throughput results: PubChem, Broad Institute
# miR122 inh = inhibitors of miR-122 in Huh7 cells; actives 0.3% (n = 340,000); Huh7 miR-122 Renilla luciferase sensor, 48 h; neutral wells = 0, positive control = 100; activation (reporter increase), % at 12.5 µM;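 active = mean replicate activation score at least 90 and every replicate individually at or above 90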;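 also: higher luciferase means less miR-122 activity so hits act as miR-122 inhibitors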
# Statin myotox sup = suppressors of simvastatin-induced myotoxicity in C2C12 myotubes. ATP luminescence, 48 h; scaled: DMSO 0, geranylgeraniol control 100. rescue of ATP level, % at 7.49 µM. actives 0.78% (n = 330,000);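 active = mean ATP rescue above about 67%, or every replicate alone reaching that limit, limit read from the data, passing the limit was not always enough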;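 also: myotubes were challenged with 10 µM simvastatin during compound exposure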
# Cneo AK release = Cryptococcus neoformans lysis via adenylate kinase release; actives 0.2% (n = 360,000); lysis activity, % at 15 µM; AID 651654; C. neoformans lysis, adenylate kinase release luminescence, 4 h; normalised: neutral wells 0, clomiphene wells 100;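 active = mean lysis activity across replicates of at least 80%, whatever share of replicates individually reach that level; inactive = mean lysis activity below 80%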
#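 Test system: log-phase Cryptococcus neoformans yeast cells. Input: 5 × 10^6 yeast cells/mL. Medium: fresh YPD growth medium. Doses: single dose. Incubation: static 4 h at 37 °C with compound, 1 h detection. Measured by: luminescent adenylate kinase detection reagent. Read-out: signal increase indicating cell lysis. Benchmarks: Clomiphene.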
# UUG fidelity = alters start codon recognition fidelity in yeast; S. cerevisiae UUG-firefly luciferase reporter, luminescence/redox ratio; activity score, % at 18.7 µM; actives 0.13% (n = 350,000); AID 602363;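 active = replicate mean at a twofold rise or more, about +100% in these data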;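 also: firefly luciferase made from a UUG start codon reports start codon fidelity; reporter light over untreated wells divided by growth signal over untreated wells; some hits fall short of that in this replicate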
# * marks the source's active call; other numbers are inactive results; x = not tested or not shown; [ ] = dose if it differs, or a comment. Compounds with a hit are over-represented: about 1.2% of the library has one in this group of screens.
# Field names – A = miR122 inh; B = Statin myotox sup; C = Cneo AK release; D = UUG fidelity
compound: C[C@H](CO)N1C[C@H](C)[C@@H](CN(C)C(=O)Nc2ccccc2)Oc2ncc(C#CC3CCCC3)cc2C1=O
  A: -2.2[16.7 µM]; B: 78.2*; C: 1.7; D: 29.7
compound: CC(C)NC(=O)N(C)C[C@@H]1Oc2ccc(NC(=O)Nc3ccccc3)cc2CC(=O)N([C@@H](C)CO)C[C@H]1C
  A: -4.1[16.7 µM]; B: -0.6; C: -0.7; D: -9.4
compound: CO[C@@H]1CN(C)C(=O)c2cc(NC(=O)c3cc(C)on3)ccc2OC[C@H](C)N(C(C)=O)C[C@@H]1C
  A: 5.7[16.7 µM]; B: -4.5; C: -5.5; D: 2.1
compound: Cc1ccc(-c2ccc3c(c2)O[C@H](CN(C)C(=O)C2CC2)[C@H](C)CN([C@H](C)CO)S3(=O)=O)cc1
  A: -9.3[16.7 µM]; B: -7.6; C: 13.1; D: 2.4
compound: Cc1noc(C)c1NC(=O)N(C)C[C@H]1Oc2ncc(C#CC(C)C)cc2C(=O)N([C@H](C)CO)C[C@H]1C
  A: -4.2[16.7 µM]; B: -4.8; C: -2.7; D: 15.8
compound: C[C@H](CO)N1C[C@H](C)[C@@H](CN(C)C(=O)C2CCOCC2)Oc2ncc(C#CCc3ccccc3)cc2C1=O
  A: x; B: 8.3; C: 86.4*; D: 18.1
compound: O=C(NNC(=O)c1ccncc1)Nc1ccc(N=Nc2ccccc2)cc1
  A: 1.6; B: 100.1*; C: -6.7; D: -20.7
compound: C[C@@H]1CN([C@@H](C)CO)C(=O)c2cc(N(C)C)ccc2O[C@@H](C)CCCCO[C@@H]1CN(C)C(=O)Nc1ccc(F)cc1
  A: 1.9[16.7 µM]; B: -3.3; C: 0.7; D: 9.1
compound: C=CCN=C1SC(C)C(=O)N1S(=O)(=O)c1ccccc1 (centres undefined)
  A: -7.2; B: 109.5*; C: 0.6; D: 6.2
compound: O=C1N(Cc2ccc(F)cc2Cl)c2ccccc2C12OCCCO2
  A: 2.9; B: 8.5; C: 4.1; D: 3.3
compound: O=C1N(Cc2ccccc2F)c2ccccc2C12OCCCO2
  A: -6.4; B: 120.1*; C: -0.6; D: -11.7
compound: CN(C)/C=C1\N=C(c2cccnc2Oc2ccc(Cl)cc2)OC1=O
  A: 0.0; B: 115.1*; C: -1.2; D: 5.7
compound: CN(C)/C=C1\N=C(c2ccc(Cl)cc2Cl)OC1=O
  A: -7.3; B: 0.4; C: -1.7; D: 5.7
compound: C[C@@H]1CN([C@H](C)CO)S(=O)(=O)c2ccc(C#CC3CC3)cc2O[C@@H]1CN(C)Cc1cccnc1
  A: -21.4[16.7 µM]; B: 4.1; C: 0.3; D: 5.0
compound: N#Cc1cnn(Cc2ccc(Cl)cc2)c1N
  A: -0.4; B: -2.8; C: -4.9; D: -15.1
compound: N#Cc1cnn(Cc2ccccc2)c1N
  A: 0.8; B: 112.1*; C: -1.3; D: -19.0
compound: Nc1c(C(=O)NCc2ccco2)nnn1CC(=O)Nc1ccccc1
  A: -1.8; B: 96.9*; C: 0.3; D: -24.0
compound: CCOc1ccccc1N1CCN(C2=C(NS(=O)(=O)c3cccs3)C(=O)c3ccccc3C2=O)CC1
  A: -1.7; B: 110.3*; C: -2.0; D: -10.0
compound: CCC(C(=O)NC1CCCC1)N(C(=O)Cn1nnc(-c2ccc(OC)c(OC)c2)n1)c1cccc(O)c1 (centres undefined)
  A: -4.4; B: 139.0*; C: -2.4; D: 4.3
compound: CCC(C(=O)NC1CCCC1)N(C(=O)Cn1nnc(-c2ccc(C)o2)n1)c1ccccc1OC (centres undefined)
  A: 1.9; B: 4.9; C: -0.1; D: -0.8
compound: Cc1noc(C)c1S(=O)(=O)Nc1ccc2c(c1)C(=O)N([C@@H](C)CO)C[C@@H](C)[C@@H](CN(C)C)OCCCC[C@@H](C)O2
  A: 0.6[16.7 µM]; B: x; C: 0.0; D: -2.0
compound: Cc1noc(C)c1NC(=O)Nc1ccc2c(c1)CC(=O)N([C@H](C)CO)C[C@@H](C)[C@H](CN(C)Cc1ccncc1)O2
  A: 2.9[16.7 µM]; B: 7.0; C: 1.4; D: -7.9
compound: O=C(NCC[C@H]1CC[C@@H](NS(=O)(=O)c2cccc(F)c2)[C@H](CO)O1)C1CCC1
  A: x; B: 5.0; C: 54.2; D: 34.0
compound: COc1ccc(C#Cc2ccc3c(c2)O[C@H](CN(C)C(=O)Nc2cccc(OC)c2)[C@H](C)CN([C@H](C)CO)S3(=O)=O)cc1
  A: -1.4[16.7 µM]; B: 92.4*; C: 43.1; D: -4.4
compound: C[C@H]1CN([C@@H](C)CO)S(=O)(=O)c2ccc(C#CCN(C)C)cc2O[C@H]1CN(C)Cc1ccc2c(c1)OCO2
  A: 6.7[16.7 µM]; B: -4.2; C: -17.2; D: 31.9
compound: C[C@H]1CN([C@@H](C)CO)S(=O)(=O)c2ccc(C#CCN(C)C)cc2O[C@@H]1CN(C)Cc1ccc2c(c1)OCO2
  A: 104.0*[16.7 µM]; B: -54.3; C: 4.4; D: 11.8
compound: COc1ccccc1-c1ccc2c(c1)O[C@@H](CN(C)C(=O)c1ccncc1)[C@H](C)CN([C@@H](C)CO)S2(=O)=O
  A: 10.6; B: 3.3; C: -0.9; D: -7.8
compound: C[C@H](CO)N1C[C@H](C)[C@@H](CN(C)S(C)(=O)=O)Oc2cc(C#Cc3ccccc3)ccc2S1(=O)=O
  A: 130.2*[16.7 µM]; B: -13.8; C: 90.7*; D: 18.4
compound: COc1ccccc1-c1ccc2c(c1)O[C@@H](CN(C)C(=O)c1cccnc1)[C@H](C)CN([C@@H](C)CO)S2(=O)=O
  A: 9.8[16.7 µM]; B: -6.5; C: 83.8*; D: x
compound: O=C(N[C@H]1CC[C@H](CCn2cc(C3(O)CCCC3)nn2)O[C@@H]1CO)c1ccccc1F
  A: -6.9[16.7 µM]; B: 19.5; C: 0.2; D: -10.8
compound: CN(C)C(=O)C[C@@H]1CC[C@H]2[C@@H](COC[C@@H](O)CN2C(=O)C2CCCC2)O1
  A: -0.7[16.7 µM]; B: 13.9; C: -1.6; D: x
compound: CCCC#Cc1ccc2c(c1)O[C@H](CN(C)CCC)[C@H](C)CN([C@@H](C)CO)S2(=O)=O
  A: 7.3[16.7 µM]; B: -64.8; C: 102.6*; D: 19.4
compound: COc1ccccc1C#Cc1ccc2c(c1)O[C@@H](CN(C)C(C)=O)[C@@H](C)CN([C@H](C)CO)S2(=O)=O
  A: 20.0[16.7 µM]; B: -18.9; C: 98.7*; D: 35.2
compound: COc1ccccc1C#Cc1ccc2c(c1)O[C@H](CN(C)C(C)=O)[C@@H](C)CN([C@@H](C)CO)S2(=O)=O
  A: 51.6[16.7 µM]; B: -15.5; C: -10.5; D: 22.7
compound: C[C@H](CO)N1C[C@H](C)[C@H](CN(C)Cc2ccccc2)Oc2cc(C#Cc3ccccn3)ccc2S1(=O)=O
  A: -6.8[16.7 µM]; B: 27.3; C: 99.0*; D: -4.6
compound: C[C@@H]1CN([C@H](C)CO)S(=O)(=O)c2ccc(C#Cc3ccccn3)cc2O[C@@H]1CN(C)Cc1ccccc1
  A: 27.5[16.7 µM]; B: 64.3; C: -0.6; D: -5.5
compound: C[C@@H]1CN([C@H](C)CO)C(=O)Cc2cc(NC(=O)CCN3CCOCC3)ccc2O[C@@H]1CN(C)S(=O)(=O)c1ccc(Cl)cc1
  A: 4.7[16.7 µM]; B: 1.5; C: -3.7; D: 1.3
compound: O=C(NC(NC(=S)Nc1c(Cl)cccc1Cl)C(Cl)(Cl)Cl)c1cccc([N+](=O)[O-])c1 (centres undefined)
  A: 173.7*; B: x; C: 6.9; D: -7.1
compound: Cc1ccc(-c2nnc(OCCN3CCOCC3)c3ccccc23)cc1
  A: -4.9; B: 111.4*; C: -0.4; D: -5.0
compound: CCCC(=O)Nc1ccc2c(c1)OC[C@H](C)N(Cc1ccccn1)C[C@@H](C)[C@H](OC)CN(C)C2=O
  A: x; B: -15.5; C: -5.0; D: x
compound: CC=Cc1ccc2n(c1=O)C[C@H]1[C@H](CO)[C@@H](C(=O)N3CCCCC3)N(Cc3ccccc3OC)[C@@H]21 (mixture of isomers)
  A: 12.7[16.7 µM]; B: 6.5; C: 0.7; D: 7.7
compound: S=c1[nH]cc(-c2ccccc2)n1-c1ccccc1
  A: -0.1; B: 97.9*; C: 2.8; D: -14.5
compound: O=C(O)CCC(C(=O)O)n1c(O)c(C2=c3ccccc3=NC2=O)sc1=S (centres undefined)
  A: 1.3; B: 111.7*; C: 1.4; D: 24.3
compound: CCCCCn1c(=O)c(C(=O)c2ccccc2)nc2ccccc21
  A: 0.2; B: 120.8*; C: 1.5; D: -0.7
compound: CCn1c(C(C)NC(=O)c2cccs2)nc2ccccc21 (centres undefined)
  A: -8.6; B: 9.7; C: -0.3; D: -11.2

# Three consecutive records already listed, quoted:
# Field names – A = miR122 inh; B = Statin myotox sup; C = Cneo AK release; D = UUG fidelity
compound: CN(C)C(=O)C[C@@H]1CC[C@H]2[C@@H](COC[C@@H](O)CN2C(=O)C2CCCC2)O1
  A: -0.7[16.7 µM]; B: 13.9; C: -1.6; D: x
compound: CCCC#Cc1ccc2c(c1)O[C@H](CN(C)CCC)[C@H](C)CN([C@@H](C)CO)S2(=O)=O
  A: 7.3[16.7 µM]; B: -64.8; C: 102.6*; D: 19.4
compound: COc1ccccc1C#Cc1ccc2c(c1)O[C@@H](CN(C)C(C)=O)[C@@H](C)CN([C@H](C)CO)S2(=O)=O
  A: 20.0[16.7 µM]; B: -18.9; C: 98.7*; D: 35.2
